According to patent US20090317825A1, “ASSAY FOR PARKINSON'S DISEASE THERAPEUTICS AND ENZYMATICALLY ACTIVE PARKIN PREPARATIONS USEFUL THEREIN” (ELAN PHARMA INTERNATIONAL LIMITED, priority 2005, published 2009):

T1: Parkin (Homo sapiens, UniProt O60260)
T1 construct: made in house; host or cells: E. coli BL21 (DE3)-pLysS, plasmid pET30a-Parkin
T1 sequence (O60260 1-465): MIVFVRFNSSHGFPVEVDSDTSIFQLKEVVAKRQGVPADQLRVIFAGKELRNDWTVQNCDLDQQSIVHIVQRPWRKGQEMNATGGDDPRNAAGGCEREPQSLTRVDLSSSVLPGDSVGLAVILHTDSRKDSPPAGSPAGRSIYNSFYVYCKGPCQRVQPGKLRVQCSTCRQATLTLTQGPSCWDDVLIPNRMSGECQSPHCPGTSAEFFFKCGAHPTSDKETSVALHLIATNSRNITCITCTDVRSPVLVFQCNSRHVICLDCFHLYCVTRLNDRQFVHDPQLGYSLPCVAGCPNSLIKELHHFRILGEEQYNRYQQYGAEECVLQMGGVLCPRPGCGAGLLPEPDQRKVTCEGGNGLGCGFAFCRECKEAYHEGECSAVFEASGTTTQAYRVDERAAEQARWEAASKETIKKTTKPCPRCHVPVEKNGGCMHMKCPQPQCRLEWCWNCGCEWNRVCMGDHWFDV


Biological target: T1, Parkin
Assay: Parkin autoubiquitination activity assay of purified recombinant Parkin
Type: biochemical
Description: The dialysate containing Parkin can be collected and any precipitant removed. The activity of the purified protein can be determined using an autoubiquitination assay. See Lorick et al., 1999, “RING fingers mediate ubiquitin-conjugating enzyme (E2)-dependent ubiquitination” Proc Natl Acad Sci USA 96:11364-9 and Example 10. Preferably the specific activity of the purified Parkin material (>95% Parkin protein) is at least about 0.1 Unit/0.5 microgram Parkin protein. For example, the specific activity may be between 0.1 Unit per 0.5 micrograms and 5 Units/0.5 micrograms. In certain embodiments the specific activity is at least about 0.2 U, at least about 0.25 U, or at least 0.5 U/0.5 microgram Parkin protein In referring to specific activity a “Unit” is defined as the ability of a Parkin protein preparation to transfer 50 ng ubiquitin to Parkin in 15 minutes (e.g., under the assay conditions described in Example 10, below, where from 0.5 to 10 micrograms, usually 0.5 micrograms, Parkin protein is used in the reaction) or, equivalently, one-quarter unit is the ability to transfer 25 ng ubiquitin to Parkin in 30 minutes.
An assay mixture containing His6-Parkin prepared as described in Examples 6 and 7 was prepared. The 50 ul volume assay contained:
1 mM Mg-ATP (omitted from controls) • *29.2 μl of 1 mM methylated ubiquitin (U-502, Boston Biochem lot #2880574, dissolved in dH2O to 1 mM) was used to resuspend 50 μg of biotin-ubiquitin (UB-560, Boston Biochem lot #2011584).
The reaction was incubated at 37° C. for 0, 15, 30, 60 or 90 minutes, and reactions terminated by adding 6 μl 5× sample buffer (250 mM HEPES pH 7.5; 250 mM NaCl) plus 4 μl 1 M DTT.
A 15 μl aliquot of the assay mixture was electrophoresed on an 12% polyacrylamide gel and transferred to a polyvinylidene fluoride (PVDF) membrane overnight (25V in 10 mM CAPS, pH 11, 10% MeOH, 4° C.) for Western blotting. The membrane was blocked 2 hours in TBST+5% BSA and incubated 1 hour at room temperature with NeutrAvidin-HRP (dilution: 1:7,500) in TBST+3% BSA (1 hour at room temperature). […]

Molecule	specific activity (Unit = ability to transfer 50 ng ubiquitin to Parkin in 15 minutes, in the presence of human GST-E1, UbCH7, ubiquitin and Mg-ATP)	ubiquitin transferred to Parkin (in 30 minutes, 0.5 microgram Parkin)	activity compared with the #8B material (after optional SEC purification and refolding)
His-tagged Parkin: Full-length human Parkin fused to N-terminal histidine tag, expressed in E. coli, purified from inclusion bodies and refolded (protein, UniProt O60260 1-465, looked up, His tag) E3 ubiquitin-protein ligase …: MIVFVRFNSSHGFPVEVDSDTSIFQLKEVVAKRQGVPADQLRVIFAGKELRNDWTVQNCDLDQQSIVHIVQRPWRKGQEMNATGGDDPRNAAGGCEREPQSLTRVDLSSSVLPGDSVGLAVILHTDSRKDSPPAGSPAGRSIYNSFYVYCKGPCQRVQPGKLRVQCSTCRQATLTLTQGPSCWDDVLIPNRMSGECQSPHCPGTSAEFFFKCGAHPTSDKETSVALHLIATNSRNITCITCTDVRSPVLVFQCNSRHVICLDCFHLYCVTRLNDRQFVHDPQLGYSLPCVAGCPNSLIKELHHFRILGEEQYNRYQQYGAEECVLQMGGVLCPRPGCGAGLLPEPDQRKVTCEGGNGLGCGFAFCRECKEAYHEGECSAVFEASGTTTQAYRVDERAAEQARWEAASKETIKKTTKPCPRCHVPVEKNGGCMHMKCPQPQCRLEWCWNCGCEWNRVCMGDHWFDV	approximately one-quarter	25.2 ng	–
#8BSEC: His6-tagged Parkin fraction additionally purified by S200 size exclusion chromatography, then refolded (protein, UniProt O60260 1-465, looked up, His6 tag) E3 ubiquitin-protein ligase …: MIVFVRFNSSHGFPVEVDSDTSIFQLKEVVAKRQGVPADQLRVIFAGKELRNDWTVQNCDLDQQSIVHIVQRPWRKGQEMNATGGDDPRNAAGGCEREPQSLTRVDLSSSVLPGDSVGLAVILHTDSRKDSPPAGSPAGRSIYNSFYVYCKGPCQRVQPGKLRVQCSTCRQATLTLTQGPSCWDDVLIPNRMSGECQSPHCPGTSAEFFFKCGAHPTSDKETSVALHLIATNSRNITCITCTDVRSPVLVFQCNSRHVICLDCFHLYCVTRLNDRQFVHDPQLGYSLPCVAGCPNSLIKELHHFRILGEEQYNRYQQYGAEECVLQMGGVLCPRPGCGAGLLPEPDQRKVTCEGGNGLGCGFAFCRECKEAYHEGECSAVFEASGTTTQAYRVDERAAEQARWEAASKETIKKTTKPCPRCHVPVEKNGGCMHMKCPQPQCRLEWCWNCGCEWNRVCMGDHWFDV	–	–	about the same
